Experimental data taken from US20260382731A1, “BCL-2/BCL-XL PROTEIN DEGRADER AND USE THEREOF” (published 2026).

Amino acid sequences for entries named in this document (tags omitted).
UniProt Q07817, whole entry: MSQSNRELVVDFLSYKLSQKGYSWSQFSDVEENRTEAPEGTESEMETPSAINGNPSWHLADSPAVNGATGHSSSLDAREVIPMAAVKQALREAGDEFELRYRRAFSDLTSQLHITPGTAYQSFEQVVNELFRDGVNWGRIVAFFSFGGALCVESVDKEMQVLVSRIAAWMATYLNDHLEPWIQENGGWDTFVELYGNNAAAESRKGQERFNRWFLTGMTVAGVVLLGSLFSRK

Assays:
BCL-XL = BCL-XL (Homo sapiens, UniProt Q07817); assay: Immunoblotting: BCL-XL protein degradation; conditions: read-out: MDA-MB-231 degradation DC50, MDA-MB-231 cells
Source text: Cells were collected and lysed in a lysis buffer (Cat. No. BP-115DG, Boston Bio Products, Ashland, MA, USA) containing protease and phosphatase inhibitor cocktails (Cat. No. PPC1010, Sigma-Aldrich, St. Louis, MO, USA). An equal amount of protein lysates was separated on precasted 4-20% Tris-glycine gels (Mini-PROTEAN TGX, Cat. No. 456-1094, Bio-Rad, Hercules, CA, USA). Thereafter, the proteins were transferred to PVDF membranes (Cat. No. LC2002, MilliporeSigma, Billerica, MA, USA). The membranes were blocked with 5% w/v nonfat dry milk in TBS+Tween-20 (0.1% v/v) and then probed with primary antibodies overnight at 4 °C. Next day, the membranes were washed and incubated with appropriate horseradish peroxidase (HRP)-conjugated secondary antibodies. Primary antibodies against BCL-XL (Cat. No. 2762) and Pactin (Cat. No. 4970) and the secondary HRP-linked antibody (Cat. No. 7074) were purchased from Cell Signaling Technology (Danvers, MA, USA). The signal was detected using the ECL substrate (Cat. No. WBKLS0500, MilliporeSigma, Billerica, MA, USA) and captured on the ChemiDoc MP Imaging System (Bio-Rad, Hercules, CA, USA). The band intensities were calculated on the ImageJ software and normalized to equal loading control β-actin.

MOLT-4 cells = assay: Cell viability assay, MOLT-4 (CellTiter-Glo, 72 h); conditions: read-out: MOLT4 Cell viability IC50
Procedure: Human T-ALL cell MOLT-4 or SCLC NCI-H146 was cultured using standard cell culture conditions in RPMI-1640 supplemented with 10% FBS in humidified incubator at 37 °C, 5% CO2. To assess the effect of BCL-XL PROTAC degraders on cell viability, exponentially growing cells were seeded at a density of 10,000 cells/well in 96-well plates. After cell seeding, serially-diluted compound or DMSO was added to the cells (in concentration ranging from 0 to 10 uM, 3* dilution series), and plates were incubated for 72 hours. Cell viability was measured using a CellTiter-Glo Luminescent Cell Viability Assay kit (Promega) according to the manufacturer's protocol. The luminescence signal of treated cells was normalized to DMSO control. The dose response curves and IC50 values were generated using Prism.

DC50 (BCL-XL) [µM]	IC50 (MOLT-4 cells) [µM]	Compound
0.003	0.024	CCn1c(C)c(C(=O)N2CCOCC2)c(-c2cc(F)cc(N3CCN(c4ccc(NS(=O)(=O)c5ccc(N[C@H](CCN6CCN(C(=O)CCCCCC(=O)N[C@H](C(=O)N7C[C@H](O)C[C@H]7C(=O)N[C@@H](C)c7ccc(-c8scnc8C)cc7)C(C)(C)C)CC6)CSc6ccccc6)c(S(=O)(=O)C(F)(F)F)c5)cc4)CC3)c2)c1-c1ccc(F)cc1
0.054	0.05	CCCn1c(C)c(C(=O)NCCN2CCN(C)CC2)c(-c2cc(F)cc(N3CCN(c4ccc(NS(=O)(=O)c5ccc(N[C@H](CCN6CCN(C(=O)CCCCCC(=O)N[C@H](C(=O)N7C[C@H](O)C[C@H]7C(=O)N[C@@H](C)c7ccc(-c8scnc8C)cc7)C(C)(C)C)CC6)CSc6ccccc6)c(S(=O)(=O)C(F)(F)F)c5)cc4)CC3)c2)c1-c1ccc(F)cc1
0.084	0.04	CCn1c(C)c(C(=O)N2CC(O)C(F)(F)C2)c(-c2cc(F)cc(N3CCN(c4ccc(NS(=O)(=O)c5ccc(N[C@H](CCN6CCN(C(=O)CCCCCC(=O)N[C@H](C(=O)N7C[C@H](O)C[C@H]7C(=O)N[C@@H](C)c7ccc(-c8scnc8C)cc7)C(C)(C)C)CC6)CSc6ccccc6)c(S(=O)(=O)C(F)(F)F)c5)cc4)CC3)c2)c1-c1ccc(F)cc1 (some centres unmarked)
0.003	0.051	CCn1c(C)c(S(C)(=O)=O)c(-c2cc(F)cc(N3CCN(c4ccc(NS(=O)(=O)c5ccc(N[C@H](CCN6CCN(CCCCC(=O)N[C@H](C(=O)N7C[C@H](O)C[C@H]7C(=O)N[C@@H](C)c7ccc(-c8scnc8C)cc7)C(C)(C)C)CC6)CSc6ccccc6)c(S(=O)(=O)C(F)(F)F)c5)cc4)CC3)c2)c1-c1ccc(F)cc1
0.114	0.009	CCn1c(C)c(S(C)(=O)=O)c(-c2cc(F)cc(N3CCN(c4ccc(NS(=O)(=O)c5ccc(N[C@H](CCN6CCN(C(=O)C7CCN(CCC(=O)N[C@H](C(=O)N8C[C@H](O)C[C@H]8C(=O)N[C@@H](C)c8ccc(-c9scnc9C)cc8)C(C)(C)C)CC7)CC6)CSc6ccccc6)c(S(=O)(=O)C(F)(F)F)c5)cc4)CC3)c2)c1-c1ccc(F)cc1
0.005	0.11	CCn1c(C)c(S(C)(=O)=O)c(-c2cc(F)cc(N3CCN(c4ccc(NS(=O)(=O)c5ccc(N[C@H](CCN6CCN(C(=O)COCCCC(=O)N[C@H](C(=O)N7C[C@H](O)C[C@H]7C(=O)N[C@@H](C)c7ccc(-c8scnc8C)cc7)C(C)(C)C)CC6)CSc6ccccc6)c(S(=O)(=O)C(F)(F)F)c5)cc4)CC3)c2)c1-c1ccc(F)cc1
0.004	0.009	CCn1c(C)c(C(=O)NC2CCOCC2)c(-c2cc(F)cc(N3CCN(c4ccc(NS(=O)(=O)c5ccc(N[C@H](CCN6CCN(CCCCCCC(=O)N[C@H](C(=O)N7C[C@H](O)C[C@H]7C(=O)N[C@@H](C)c7ccc(-c8scnc8C)cc7)C(C)(C)C)CC6)CSc6ccccc6)c(S(=O)(=O)C(F)(F)F)c5)cc4)CC3)c2)c1-c1ccc(F)cc1
0.052	0.032	CCn1c(C)c(C(=O)N2CC[C@H](C#N)C2)c(-c2cc(F)cc(N3CCN(c4ccc(NS(=O)(=O)c5ccc(N[C@H](CCN6CCN(C(=O)CCCCCC(=O)N[C@H](C(=O)N7C[C@H](O)C[C@H]7C(=O)N[C@@H](C)c7ccc(-c8scnc8C)cc7)C(C)(C)C)CC6)CSc6ccccc6)c(S(=O)(=O)C(F)(F)F)c5)cc4)CC3)c2)c1-c1ccc(F)cc1
0.031	0.035	CCn1c(C)c(C(=O)N2CCC(C)(C#N)C2)c(-c2cc(F)cc(N3CCN(c4ccc(NS(=O)(=O)c5ccc(N[C@H](CCN6CCN(C(=O)CCCCCC(=O)N[C@H](C(=O)N7C[C@H](O)C[C@H]7C(=O)N[C@@H](C)c7ccc(-c8scnc8C)cc7)C(C)(C)C)CC6)CSc6ccccc6)c(S(=O)(=O)C(F)(F)F)c5)cc4)CC3)c2)c1-c1ccc(F)cc1 (some centres unmarked)
0.003	0.028	CCn1c(C)c(S(C)(=O)=O)c(-c2cc(F)cc(N3CCN(c4ccc(NS(=O)(=O)c5ccc(N[C@H](CCN6CCN(CCCCCOCC(=O)N[C@H](C(=O)N7C[C@H](O)C[C@@H]7C(=O)N[C@@H](C)c7ccc(-c8scnc8C)cc7)C(C)(C)C)CC6)CSc6ccccc6)c(S(=O)(=O)C(F)(F)F)c5)cc4)CC3)c2)c1-c1ccc(F)cc1
0.065	0.054	CCn1c(C)c(S(C)(=O)=O)c(-c2cc(F)cc(N3CCN(c4ccc(NS(=O)(=O)c5ccc(N[C@H](CCN6CCN(C(=O)COCCOCC(=O)N[C@H](C(=O)N7C[C@H](O)C[C@H]7C(=O)N[C@@H](C)c7ccc(-c8scnc8C)cc7)C(C)(C)C)CC6)CSc6ccccc6)c(S(=O)(=O)C(F)(F)F)c5)cc4)CC3)c2)c1-c1ccc(F)cc1
0.051	0.034	CCn1c(C)c(C(=O)N2CC[C@H](OC)C2)c(-c2cc(F)cc(N3CCN(c4ccc(NS(=O)(=O)c5ccc(N[C@H](CCN6CCN(C(=O)CCCCCC(=O)N[C@H](C(=O)N7C[C@H](O)C[C@H]7C(=O)N[C@@H](C)c7ccc(-c8scnc8C)cc7)C(C)(C)C)CC6)CSc6ccccc6)c(S(=O)(=O)C(F)(F)F)c5)cc4)CC3)c2)c1-c1ccc(F)cc1
0.092	0.15	Cc1ncsc1-c1ccc([C@H](C)NC(=O)[C@@H]2C[C@@H](O)CN2C(=O)[C@@H](NC(=O)CCCCCC(=O)N2CCN(CC[C@H](CSc3ccccc3)Nc3ccc(S(=O)(=O)Nc4ccc(N5CCN(c6cc(F)cc(-c7c(S(C)(=O)=O)c(C)n(C8CC8)c7-c7ccc(F)cc7)c6)CC5)cc4)cc3S(=O)(=O)C(F)(F)F)CC2)C(C)(C)C)cc1
–	41	CCn1c(C)c(S(C)(=O)=O)c(-c2cc(F)cc(N3CCN([C@H]4CC[C@@H](NS(=O)(=O)c5ccc(N[C@H](CCN6CCN(C7CCN(CCOc8cc([C@@H](C(=O)N9C[C@H](O)C[C@H]9C(=O)N[C@@H](CO)c9ccc(-c%10scnc%10C)cc9)C(C)C)on8)CC7)CC6)CSc6ccccc6)c(S(=O)(=O)C(F)(F)F)c5)CC4)CC3)c2)c1-c1ccc(F)cc1
–	0.037	CCn1c(C)c(S(C)(=O)=O)c(-c2cc(F)cc(N3CCN(c4ccc(NS(=O)(=O)c5ccc(N[C@H](CCN6CCN(C(=O)CCCCCC(=O)N[C@H](C(=O)N7C[C@H](O)C[C@H]7C(=O)NC7(c8ccc(-c9scnc9C)cc8)CC7)C(C)(C)C)CC6)CSc6ccccc6)c(S(=O)(=O)C(F)(F)F)c5)cc4)CC3)c2)c1-c1ccc(F)cc1
–	0.028	CCn1c(C)c(S(C)(=O)=O)c(-c2cc(F)cc(N3CCN(c4ccc(NS(=O)(=O)c5ccc(N[C@H](CCN6CCN(C(=O)CCOCCOCC(=O)N[C@H](C(=O)N7C[C@H](O)C[C@H]7C(=O)N[C@@H](C)c7ccc(-c8scnc8C)cc7)C(C)(C)C)CC6)CSc6ccccc6)c(S(=O)(=O)C(F)(F)F)c5)cc4)CC3)c2)c1-c1ccc(F)cc1
–	0.095	CCn1c(C)c(S(C)(=O)=NC)c(-c2cc(F)cc(N3CCN(c4ccc(NS(=O)(=O)c5ccc(N[C@H](CCN6CCN(C(=O)CCCCCC(=O)N[C@H](C(=O)N7C[C@H](O)C[C@H]7C(=O)N[C@@H](C)c7ccc(-c8scnc8C)cc7)C(C)(C)C)CC6)CSc6ccccc6)c(S(=O)(=O)C(F)(F)F)c5)cc4)CC3)c2)c1-c1ccc(F)cc1 (some centres unmarked)
–	0.011	CCn1c(C)c(C(=O)N2CC[C@H](O)C2)c(-c2cc(F)cc(N3CCN(c4ccc(NS(=O)(=O)c5ccc(N[C@H](CCN6CCN(C(=O)CCCCCC(=O)N[C@H](C(=O)N7C[C@H](O)C[C@H]7C(=O)N[C@@H](C)c7ccc(-c8scnc8C)cc7)C(C)(C)C)CC6)CSc6ccccc6)c(S(=O)(=O)C(F)(F)F)c5)cc4)CC3)c2)c1-c1ccc(F)cc1
–	0.086	CCn1c(C)c(S(C)(=O)=O)c(-c2cc(F)cc(N3CCN(c4ccc(NS(=O)(=O)c5ccc(N[C@H](CCN6CCN(C(=O)CC7CCC(C(=O)N[C@H](C(=O)N8C[C@H](O)C[C@H]8C(=O)N[C@@H](C)c8ccc(-c9scnc9C)cc8)C(C)(C)C)CC7)CC6)CSc6ccccc6)c(S(=O)(=O)C(F)(F)F)c5)cc4)CC3)c2)c1-c1ccc(F)cc1 (some centres unmarked)
–	0.03	CCn1c(C)c(S(=O)(=O)N2CC[C@H](O)C2)c(-c2cc(F)cc(N3CCN(c4ccc(NS(=O)(=O)c5ccc(N[C@H](CCN6CCN(C(=O)CCCCCC(=O)N[C@H](C(=O)N7C[C@H](O)C[C@H]7C(=O)N[C@@H](C)c7ccc(-c8scnc8C)cc7)C(C)(C)C)CC6)CSc6ccccc6)c(S(=O)(=O)C(F)(F)F)c5)cc4)CC3)c2)c1-c1ccc(F)cc1
–	0.045	CCn1c(C)c(S(C)(=O)=O)c(-c2cc(F)cc(N3CCN(c4ccc(NS(=O)(=O)c5ccc(N[C@H](CCN6CCN(CCOCCOCCC(=O)N[C@H](C(=O)N7C[C@H](O)C[C@H]7C(=O)N[C@@H](C)c7ccc(-c8scnc8C)cc7)C(C)(C)C)CC6)CSc6ccccc6)c(S(=O)(=O)C(F)(F)F)c5)cc4)CC3)c2)c1-c1ccc(F)cc1
–	0.078	CCn1c(C)c(S(C)(=O)=O)c(-c2cc(F)cc(N3CCN(c4ccc(NS(=O)(=O)c5ccc(N[C@H](CCN6CCN(C(=O)COCCOCCC(=O)N[C@H](C(=O)N7C[C@H](O)C[C@H]7C(=O)N[C@@H](C)c7ccc(-c8scnc8C)cc7)C(C)(C)C)CC6)CSc6ccccc6)c(S(=O)(=O)C(F)(F)F)c5)cc4)CC3)c2)c1-c1ccc(F)cc1
